Measured values taken from US8507447, “Treatments of gastrointestinal disorders” (dated 2013).

T1: Peptide 2
T1 chain: CCSLCCNPACTGC

T2: Peptide 1
T2 chain: CCSLCCNPACTGCY

T3: Peptide 3
T3 chain: CCELCCNPACTGCY

B1: Calf intestinal alkaline phosphatase (protein)
chain: LVPVEEEDPAFWNRQAAQALDVAKKLQPIQTAAKNVILFLGDGMGVPTVTATRILKGQMNGKLGPETPLAMDQFPYVALSKTYNVDRQVPDSAGTATAYLCGVKGNYRTIGVSAAARYNQCKTTRGNEVTSVMNRAKKAGKSVGVVTTTRVQHASPAGAYAHTVNRNWYSDADLPADAQMNGCQDIAAQLVNNMDIDVILGGGRKYMFPVGTPDPEYPDDASVNGVRKRKQNLVQAWQAKHQGAQYVWNRTALLQAADDSSVTHLMGLFEPADMKYNVQQDHTKDPTLQEMTEVALRVVSRNPRGFYLFVEGGRIDHGHHDDKAYMALTEAGMFDNAIAKANELTSELDTLILVTADHSHVFSFGGYTLRGTSIFGLAPSKALDSKSYTSILYGNGPGYALGGGSRPDVNDSTSEDPSYQQQAAVPQASETHGGEDVAVFARGPQAHLVHGVEEETFVAHIMAFAGCVEPYTDCNLPAPTTATSIPD
B2: Dephospho-Peptide 1 (peptide)
peptide: CCSLCCNPACTGCY
modifications: not checked
B3: Dephospho-Peptide 2 (peptide)
peptide: CCSLCCNPACTGC
modifications: not checked
B4: Peptide 5 (peptide)
peptide: DDCCSLCCNPACTGCY
modifications: not checked
B5: Peptide 6 (peptide)
peptide: DDCCSYCCNPACTGCY
modifications: not checked

Legend:
Peptide 2 = molecular target: T1, Peptide 2
Peptide 1 = molecular target: T2, Peptide 1
Peptide 3 = molecular target: T3, Peptide 3
[1] = molecular target: Guanylate cyclase C (human), P25092; test: cell-based or functional assay

Binder | cGMP response of T84 cells, EC50 at pH 5 (nM) [1] [nM] | cGMP response of T84 cells, EC50 at pH 5 [1] [nM] | further results
B1 | – | – | Dephosphorylation of Peptide 2, Dephospho (%), alkaline phosphatase pH 8 (Peptide 2): 100%; Dephosphorylation of Peptide 2, Remaining (%), alkaline phosphatase pH 8 (Peptide 2): 0%; Dephosphorylation of Peptide 1, Dephospho (%), alkaline phosphatase pH 8 (Peptide 1): 100%; LC-MS of reactions with and without calf intestinal alkaline phosphatase (Peptide 3): Peptide 3 was not affected by CIP treatment (data not shown)
B2 | 128 | – | –
B3 | 78.1 | – | –
B4 | – | 14.7 | –
B5 | – | 39.2 | –
